Experimental findings from patent US5935805A, “Measurement of bilirubin albumin binding” (Research Corporation Technologies, Inc., priority 1997, dated 1999) are described below.

For the data set the following is noted: freeze dried HRP reconstituted with water to 100 μg/mL.

Regarding horseradish peroxidase, the “Time Kp remains unchanged after reconstitution” value is “up to four”.
